Data published in paper PMC4082411.

Protein sequences, listed by entry. Tags and fused reporters are not part of them.
UniProt O14757, whole entry: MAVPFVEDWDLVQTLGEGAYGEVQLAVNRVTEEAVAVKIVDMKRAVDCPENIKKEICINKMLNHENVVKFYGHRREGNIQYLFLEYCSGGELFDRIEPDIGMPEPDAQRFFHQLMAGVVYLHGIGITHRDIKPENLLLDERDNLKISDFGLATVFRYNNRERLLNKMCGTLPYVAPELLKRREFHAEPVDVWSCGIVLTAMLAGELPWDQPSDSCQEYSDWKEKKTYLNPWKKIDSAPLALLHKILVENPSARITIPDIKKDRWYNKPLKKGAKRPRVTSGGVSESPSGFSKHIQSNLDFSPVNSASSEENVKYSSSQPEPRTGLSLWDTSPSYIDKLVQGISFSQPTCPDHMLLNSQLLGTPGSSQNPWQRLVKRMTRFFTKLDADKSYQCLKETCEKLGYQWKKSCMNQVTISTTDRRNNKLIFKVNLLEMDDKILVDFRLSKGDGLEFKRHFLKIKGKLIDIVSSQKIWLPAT

Molecular target: Chk1 (Homo sapiens, UniProt O14757)
Experiment: DiscoveRx KINOMEscan MAX binding panel ([…] wild-type kinases), duplicate single point at […]

%: 99 – 100%
Structure (SMILES): CN(C)CC(C)(C)COc1ccc2[nH]c(-c3cc(NC(=O)c4cnn(Cc5ccccc5)c4)c[nH]c3=O)cc2c1
